Measured values published in ChEMBL document CHEMBL5375987, “Structural Fusion of Natural and Synthetic Ligand Features Boosts RXR Agonist Potency” (J Med Chem, 2023).
Activity calls are given as the source filed them.

By UniProt entry, the sequences of proteins in these tests, tags left out. Where a name states a change or a piece, a line headed by the entry shows the natural chain unless it says otherwise.
UniProt P13631, whole entry: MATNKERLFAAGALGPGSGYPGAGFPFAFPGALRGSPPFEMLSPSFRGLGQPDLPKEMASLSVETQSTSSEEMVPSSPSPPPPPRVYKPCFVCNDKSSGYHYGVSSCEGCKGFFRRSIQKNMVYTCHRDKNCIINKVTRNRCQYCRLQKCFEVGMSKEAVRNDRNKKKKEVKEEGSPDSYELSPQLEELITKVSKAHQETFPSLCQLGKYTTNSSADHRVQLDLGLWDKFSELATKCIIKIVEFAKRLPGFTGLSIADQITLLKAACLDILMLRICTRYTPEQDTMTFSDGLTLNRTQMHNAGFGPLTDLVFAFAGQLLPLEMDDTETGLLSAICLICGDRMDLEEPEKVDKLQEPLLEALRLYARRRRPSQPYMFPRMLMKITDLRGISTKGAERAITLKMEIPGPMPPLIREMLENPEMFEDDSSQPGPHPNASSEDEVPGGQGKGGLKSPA
UniProt O00482, whole entry: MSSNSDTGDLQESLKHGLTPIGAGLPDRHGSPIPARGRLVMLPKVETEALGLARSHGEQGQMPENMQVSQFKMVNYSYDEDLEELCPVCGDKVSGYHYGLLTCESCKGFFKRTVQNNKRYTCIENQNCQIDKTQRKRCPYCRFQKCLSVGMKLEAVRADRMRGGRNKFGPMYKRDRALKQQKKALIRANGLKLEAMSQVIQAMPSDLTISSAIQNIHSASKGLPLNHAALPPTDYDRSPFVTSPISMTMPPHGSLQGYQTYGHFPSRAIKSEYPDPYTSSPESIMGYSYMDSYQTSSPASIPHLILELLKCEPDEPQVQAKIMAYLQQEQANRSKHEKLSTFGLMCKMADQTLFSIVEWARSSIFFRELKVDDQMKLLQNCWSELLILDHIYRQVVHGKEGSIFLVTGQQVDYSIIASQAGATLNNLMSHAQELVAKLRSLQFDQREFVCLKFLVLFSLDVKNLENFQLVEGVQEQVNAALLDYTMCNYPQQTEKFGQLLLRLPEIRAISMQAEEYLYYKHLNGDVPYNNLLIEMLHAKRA
UniProt P10826, whole entry: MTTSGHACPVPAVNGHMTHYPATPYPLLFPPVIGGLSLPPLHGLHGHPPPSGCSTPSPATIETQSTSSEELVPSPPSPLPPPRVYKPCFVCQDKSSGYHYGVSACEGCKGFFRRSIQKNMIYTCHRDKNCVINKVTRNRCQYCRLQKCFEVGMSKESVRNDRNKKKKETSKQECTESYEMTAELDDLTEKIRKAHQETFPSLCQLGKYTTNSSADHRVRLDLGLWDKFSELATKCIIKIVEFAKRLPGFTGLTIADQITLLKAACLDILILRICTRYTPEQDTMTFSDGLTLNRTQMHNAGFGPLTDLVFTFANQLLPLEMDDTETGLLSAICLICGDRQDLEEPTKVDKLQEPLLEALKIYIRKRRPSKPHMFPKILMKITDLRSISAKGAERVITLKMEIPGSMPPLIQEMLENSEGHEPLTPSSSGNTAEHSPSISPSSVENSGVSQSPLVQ
UniProt P37231: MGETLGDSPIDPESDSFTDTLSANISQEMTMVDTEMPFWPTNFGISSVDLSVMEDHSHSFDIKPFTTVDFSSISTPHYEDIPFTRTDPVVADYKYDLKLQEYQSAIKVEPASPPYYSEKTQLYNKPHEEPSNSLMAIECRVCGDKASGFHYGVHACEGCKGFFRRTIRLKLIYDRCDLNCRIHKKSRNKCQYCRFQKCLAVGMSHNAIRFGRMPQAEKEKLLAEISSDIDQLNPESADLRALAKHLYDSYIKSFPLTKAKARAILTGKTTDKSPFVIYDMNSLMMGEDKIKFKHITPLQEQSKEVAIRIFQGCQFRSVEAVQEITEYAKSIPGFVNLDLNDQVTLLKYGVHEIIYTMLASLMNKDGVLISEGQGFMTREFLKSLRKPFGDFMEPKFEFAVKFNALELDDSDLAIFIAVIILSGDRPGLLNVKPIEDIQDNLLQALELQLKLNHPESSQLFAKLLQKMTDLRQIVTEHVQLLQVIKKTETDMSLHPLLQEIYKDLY

Assays:
[1] = molecular target: Retinoic acid receptor gamma (Homo sapiens) (UniProt P13631); experiment: Agonist activity at NR1B3 (unknown origin) at 1 uM
[2] = molecular target: T1, Bile acid receptor (Homo sapiens) (UniProt Q96RI1); experiment: Agonist activity at NR1H4 (unknown origin) at 1 uM
T1 sequence (whole entry): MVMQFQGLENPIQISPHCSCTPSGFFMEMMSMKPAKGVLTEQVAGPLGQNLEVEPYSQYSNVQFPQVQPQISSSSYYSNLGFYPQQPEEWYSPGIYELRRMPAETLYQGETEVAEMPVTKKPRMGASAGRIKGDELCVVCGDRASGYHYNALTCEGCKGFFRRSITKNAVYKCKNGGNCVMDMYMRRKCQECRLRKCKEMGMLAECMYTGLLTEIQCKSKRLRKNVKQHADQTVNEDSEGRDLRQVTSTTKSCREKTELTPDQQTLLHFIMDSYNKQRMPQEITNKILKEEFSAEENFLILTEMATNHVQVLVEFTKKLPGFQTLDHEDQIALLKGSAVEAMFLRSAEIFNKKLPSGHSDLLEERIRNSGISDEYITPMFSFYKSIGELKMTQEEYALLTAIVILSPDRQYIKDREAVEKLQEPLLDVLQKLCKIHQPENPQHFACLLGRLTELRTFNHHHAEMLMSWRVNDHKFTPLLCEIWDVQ

[3] = molecular target: T2, Nuclear receptor subfamily 2 group C member 1 (Homo sapiens) (UniProt P13056); experiment: Agonist activity at NR2C1 (unknown origin) at 1 uM
T2 sequence (whole entry): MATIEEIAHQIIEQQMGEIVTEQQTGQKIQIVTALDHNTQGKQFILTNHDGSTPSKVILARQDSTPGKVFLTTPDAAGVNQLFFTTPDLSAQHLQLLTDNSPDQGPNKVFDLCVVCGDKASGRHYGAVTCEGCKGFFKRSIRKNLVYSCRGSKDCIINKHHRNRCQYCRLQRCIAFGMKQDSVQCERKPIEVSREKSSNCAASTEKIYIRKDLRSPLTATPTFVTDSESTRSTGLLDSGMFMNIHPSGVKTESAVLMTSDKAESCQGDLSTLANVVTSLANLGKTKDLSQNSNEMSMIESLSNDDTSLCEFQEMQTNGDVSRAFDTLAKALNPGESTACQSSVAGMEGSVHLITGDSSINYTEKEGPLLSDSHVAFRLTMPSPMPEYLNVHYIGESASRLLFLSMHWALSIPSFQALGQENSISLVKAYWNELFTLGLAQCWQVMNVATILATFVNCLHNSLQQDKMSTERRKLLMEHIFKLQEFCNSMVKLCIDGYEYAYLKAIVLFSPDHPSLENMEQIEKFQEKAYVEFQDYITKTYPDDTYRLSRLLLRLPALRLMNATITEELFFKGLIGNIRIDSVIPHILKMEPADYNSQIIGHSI

[4] = molecular target: Nuclear receptor subfamily 5 group A member 2 (Homo sapiens) (UniProt O00482); experiment: Agonist activity at NR5A2 (unknown origin) at 1 uM
[5] = molecular target: Retinoic acid receptor beta (Homo sapiens) (UniProt P10826); experiment: Inverse agonist activity at NR1B2 (unknown origin) at 1 uM
[6] = molecular target: Retinoic acid receptor gamma (Homo sapiens) (UniProt P13631); experiment: Inverse agonist activity at NR1B3 (unknown origin) at 1 uM
[7] = molecular target: T3, Peroxisome proliferator-activated receptor alpha (Homo sapiens) (UniProt Q07869); experiment: Inverse agonist activity at NR1C1 (unknown origin) at 1 uM
T3 sequence (whole entry): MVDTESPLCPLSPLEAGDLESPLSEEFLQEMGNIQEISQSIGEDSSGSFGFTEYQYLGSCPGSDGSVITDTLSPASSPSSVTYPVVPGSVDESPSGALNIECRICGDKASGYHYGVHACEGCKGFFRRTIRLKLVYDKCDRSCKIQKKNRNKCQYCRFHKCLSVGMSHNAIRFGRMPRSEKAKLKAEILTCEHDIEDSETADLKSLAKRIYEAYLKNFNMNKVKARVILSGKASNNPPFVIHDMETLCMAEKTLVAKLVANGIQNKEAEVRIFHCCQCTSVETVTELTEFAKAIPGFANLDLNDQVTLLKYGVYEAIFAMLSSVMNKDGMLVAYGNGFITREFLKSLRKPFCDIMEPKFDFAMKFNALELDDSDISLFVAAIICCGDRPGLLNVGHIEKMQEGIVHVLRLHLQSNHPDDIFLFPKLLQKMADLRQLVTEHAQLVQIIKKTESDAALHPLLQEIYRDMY

[8] = molecular target: Peroxisome proliferator-activated receptor gamma (Homo sapiens) (UniProt P37231); experiment: Inverse agonist activity at NR1C3 (unknown origin) at 1 uM
[9] = molecular target: Nuclear receptor subfamily 5 group A member 2 (Homo sapiens) (UniProt O00482); experiment: Inverse agonist activity at NR5A2 (unknown origin) at 1 uM
[10] = molecular target: T4, Nuclear receptor ROR-alpha (Homo sapiens) (UniProt P35398); experiment: Antagonist activity at NR1F1 (unknown origin) at 1 uM
T4 sequence (whole entry): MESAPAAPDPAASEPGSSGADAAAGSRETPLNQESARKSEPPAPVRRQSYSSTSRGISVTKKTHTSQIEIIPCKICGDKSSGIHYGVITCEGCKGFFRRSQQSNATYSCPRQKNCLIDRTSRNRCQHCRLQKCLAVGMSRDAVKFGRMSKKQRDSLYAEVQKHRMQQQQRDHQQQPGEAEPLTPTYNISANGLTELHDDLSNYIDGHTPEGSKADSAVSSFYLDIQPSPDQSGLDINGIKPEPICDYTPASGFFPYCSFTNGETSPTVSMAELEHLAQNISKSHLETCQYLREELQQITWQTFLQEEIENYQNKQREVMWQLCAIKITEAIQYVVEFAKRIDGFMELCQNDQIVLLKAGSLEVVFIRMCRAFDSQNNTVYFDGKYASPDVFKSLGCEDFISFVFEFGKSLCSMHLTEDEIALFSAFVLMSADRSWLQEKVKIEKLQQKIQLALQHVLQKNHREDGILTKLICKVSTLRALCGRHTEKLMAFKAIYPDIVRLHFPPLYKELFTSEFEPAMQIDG

[11] = molecular target: T5, Hepatocyte nuclear factor 4-alpha (Homo sapiens) (UniProt P41235); experiment: Antagonist activity at NR2A1 (unknown origin) at 1 uM
T5 sequence (whole entry): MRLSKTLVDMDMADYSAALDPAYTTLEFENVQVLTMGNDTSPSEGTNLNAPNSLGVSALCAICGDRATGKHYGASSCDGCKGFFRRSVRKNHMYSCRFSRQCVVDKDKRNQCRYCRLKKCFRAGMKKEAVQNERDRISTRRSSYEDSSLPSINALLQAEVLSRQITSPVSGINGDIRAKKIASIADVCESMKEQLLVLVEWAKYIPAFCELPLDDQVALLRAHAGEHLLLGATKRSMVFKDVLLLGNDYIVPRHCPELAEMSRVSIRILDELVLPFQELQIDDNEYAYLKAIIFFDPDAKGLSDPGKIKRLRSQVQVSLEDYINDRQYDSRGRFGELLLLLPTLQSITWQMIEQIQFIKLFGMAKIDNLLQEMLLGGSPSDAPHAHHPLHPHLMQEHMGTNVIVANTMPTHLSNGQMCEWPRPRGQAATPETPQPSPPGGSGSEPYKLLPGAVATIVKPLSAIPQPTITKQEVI

Measured: Activity

O=C(O)[C@@H]1C[C@H]1c1nc(-c2ccccc2)c(-c2cc(C(F)(F)F)cc(C(F)(F)F)c2)o1 (racemic)
inactive: all assays above
